Results on 1 compound are retold here after ChEMBL document CHEMBL4152224, “The Identification of Potent, Selective, and Orally Available Inhibitors of Ataxia Telangiectasia Mutated (ATM) Kinase: The Discovery of AZD0156 (8-{6-[3-(Dimethylamino)propoxy]pyridin-3-yl}-3-methyl-1-(tetrahydro-2 H-pyran-4-yl)-1,3-dihydro-2 H-imidazo[4,5- c]quinolin-2-one)” (J Med Chem, 2018).

Assay [1] addresses Leucine-rich repeat serine/threonine-protein kinase 2 (Homo sapiens) (UniProt Q5S007). Put plainly: Inhibition of human LRRK2 (H970 to E2527 residues) expressed in mammalian expression system at 1 uM relative to control.
Assay [2] has as its target DNA-dependent protein kinase catalytic subunit (Homo sapiens, UniProt P78527).
Assay [3] deals with Serine/threonine-protein kinase mTOR (Homo sapiens, UniProt P42345).

What is called inhibition is the relative decrease from the control value, in per cent. A high value points to strong suppression. A word on the IC50: it is the concentration needed to halve the response being measured. Low values mean greater potency in that assay, high ones weaker potency in that assay. In assay [1], `CN(C)CCCOc1ccc(-c2ccc3ncc4c(c3c2)n(C2CCOCC2)c(=O)n4C)cn1` showed an inhibition of 87%. The values for the IC50 in assay [2] and in assay [3] were 140 nM and 200 nM, respectively.
